Reference: paper PMC6437697 (Journal of Medicinal Chemistry, 2019)

Assay: in vitro
Conditions: human

In the case of CC(C)c1nc(-c2ccc(NC(=O)Nc3cccc(C(F)(F)F)c3)c3ccccc23)c2c(N)nccn12 [KIRA3, reference compound], the EC50 is reported as over 49 µM.
